SMILES strings stand for the structures.

Assay [1] has as its system naive ES-2 cells. The following applies: compared to the IGF2BP1 deleted ES-2 cells.
Assay [2] relates to naive ES-2 cells. Kind of assay: cells. The following applies: Homo sapiens, ES-2, read-out: cytoreductive effect (potency).

Consider `CCNC(=O)/C=C/C(=O)c1ccccc1` [J5, (E)-N-ethyl-4-oxo-4-phenylbut-2-enamide], for which, in the assay on naive ES-2 cells [1], the “selectivity to naive ES-2 cells” value is reported as “around 1.8 fold”. The IC50 with naive ES-2 cells [2] turned out to be 580 nM.

The record behind these values is patent EP3871665B1, “INHIBITORS OF RNA-BINDING PROTEINS AS ANTI-CANCER DRUGS” (priority 2020, dated 2021).
